Values quoted from earlier work as cited in US20170216421A1, “MANUFACTURING OF MULTI-DOSE INJECTION READY DENDRITIC CELL VACCINES, COMBINATION THERAPIES FOR BLOCKING HER2 AND HER3, AND ESTROGEN RECEPTOR POSITIVE HER2 BREAST RECEPTOR POSITIVE HER2 BREAST CANCER THERAPY” (THE TRUSTEES OF THE UNIVERSITY OF PENNSYLVANIA, priority 2015, published 2017).

Test system: HER2/ErbB2 positive breast cancer cells
Conditions: estimated; Burris et al., 2000; cited from earlier work

Substance: Herceptin: targeted therapy for HER2/ErbB2 positive breast cancer cells
- efficacy: less than 30%
